## scFv variants of Ab-14 (heavy chain) against a SARS-CoV-2 spike peptide

The measurements come from Engelhart et al. 2022 (doi:10.1038/s41597-022-01779-4) through the FLAb antibody collection.

Antigen: PDVDLGDISGINAS, a 14-residue peptide of the SARS-CoV-2 spike HR2 region.

Ab-14 is the parent antibody, in scFv form: VH, then a 15-residue (Gly4Ser)3 linker, then VL. The light chain is unchanged in all variants.
VH: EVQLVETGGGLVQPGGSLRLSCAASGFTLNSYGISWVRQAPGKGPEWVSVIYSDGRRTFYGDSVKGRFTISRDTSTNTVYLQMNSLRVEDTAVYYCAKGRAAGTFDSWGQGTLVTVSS
VL: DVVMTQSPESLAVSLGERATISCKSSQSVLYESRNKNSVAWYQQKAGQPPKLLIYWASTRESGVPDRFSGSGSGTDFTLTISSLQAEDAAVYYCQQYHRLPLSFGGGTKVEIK

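The parent was found by panning a naive human phage display library on the peptide. The library (AAYL49) carries one to three amino acid substitutions per variant, with no insertions or deletions. The assay is AlphaSeq: two haploid yeast populations carry antibody and antigen on their surface. After mating in shaken culture at 30 °C for 16 h, diploids were selected and their barcode pairs sequenced. The ratio of observed to expected reads was calibrated, replicate by replicate, on BCL2-family standards whose Kd was known from biolayer interferometry. The assay was run in three technical replicates.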

Variants are written as CDR1, CDR2 and CDR3 of the heavy chain (limits as in the source). Parent: GFTLNSYGIS, VIYSDGRRTFYGDSVK, GRAAGTFDS.
Values are apparent Kd, the geometric mean of the replicates that gave a signal; lower means stronger binding.
Where no diploid with the target was found in any replicate, the entry reads "not detected": below detection, most likely a poor binder, though not proof of it.
Background: pairings of library AAYL49 with three empty control strains gave a value in 15% of cases (median 11 µM, 5th percentile 680 nM). Values in that range, when seen in few replicates, are hard to tell from nonspecific mating. The control count says in how many pairings with the empty strains this scFv gave a signal.
In this assay the parent's reference entry averaged 4.4 nM; its copy inside this library read 13 µM (one replicate of three).

CDR-H1	CDR-H2	CDR-H3	apparent Kd	detected	control signals
GFTLNSYGIS	VMYSDGWRTFYGDDVK	GRAAGTFDS	1.9 µM	3 of 3	0 of 9
GFELNSYGIS	VIYSDGRRTFYGDSVK	GPAAGTFDS	not detected	0 of 3	1 of 9
GFTLNSYGIS	VIYSDGRRTFYGDSVV	GHAAGTFDS	22 nM	3 of 3	1 of 9
GFTLNSYGIS	VIYSPGRRTFYGDSVT	GRYAGTFDS	not detected	0 of 3	1 of 9
GFTLNSYGIS	VIYSDGRRCFYCDSYK	GRAAGTFDS	not detected	0 of 3	0 of 9
GFTLNSCGIS	VIYSDYRRTFYGDSDK	GRAAGTFDS	not detected	0 of 3	3 of 9
GFTLNMYGIL	VIYSDGRRTFYGDSVK	GRAAGTFDW	5.7 µM	3 of 3	1 of 9
GFTLNSFGIS	VQYSDGRRTFYGDSVK	GSAAGTFDS	not detected	0 of 3	0 of 9
GFTLNSYFIS	NIYSDGRRTFYGCSVK	GRAAGTFDS	not detected	0 of 3	3 of 9
GFTLNSPGIS	VIYSDHRRTFYGDSVK	GHAAGTFDS	not detected	0 of 3	2 of 9
GFTLNSYGIS	VIYSDGRRTFYGDSCK	WRAAGVFDS	88 nM	2 of 3	2 of 9
GFTLNSYGIS	VIYSDGRRTCYGDSVK	GRAAGTFPS	3.1 µM	1 of 3	0 of 9
GFTLNSYGRS	VRYSDGMRTFYGDSVK	GRAAGTFDS	6.8 µM	2 of 3	2 of 9
GFTLNSYGNS	VIYSDGRRTFYGDSVK	GVAAGRFDS	not detected	0 of 3	1 of 9
GFTLNSYGIN	VIYSDLRRTFYGDSVK	GWAAGTFDS	not detected	0 of 3	1 of 9
AFTLNCYGIS	VIYSDGRQTFYGDSVK	GRAAGTFDS	9.3 µM	3 of 3	5 of 9
GFILNSYGIS	VIYTDGRRTFYGDSVK	GRAAGTFRS	250 µM	1 of 3	0 of 9
GFTLNSYGIS	VNYSDGRRTFVGPSVK	GRAAGTFDS	12 µM	1 of 3	3 of 9
GFTANSYGIN	VIYSRGRRTFYGDSVK	GRAAGTFDS	16 µM	1 of 3	2 of 9
GFTLNTYGID	VISSDGRRTFYGDSVK	GRAAGTFDS	34 µM	2 of 3	8 of 9
GSTLNSYGIS	VIYSDGRRTFYGDSVK	NHAAGTFDS	not detected	0 of 3	2 of 9
GFTLNGYGIS	VIYSDGRRTFLGDSVG	GRAAGTFDS	not detected	0 of 3	0 of 9
GFTLNSCGIS	VIISDGRRTFYGDSVK	GRAAGTFDV	not detected	0 of 3	0 of 9
GVQGNSYGIS	VIYSDGRRTFYGDSVK	GRAAGTFDS	30 µM	1 of 3	1 of 9
GFTLNSYGIS	WIYSDGRRTFYGDSVK	GRNAGTTDS	not detected	0 of 3	1 of 9
GFTLNSYGIS	VIFSDGRRTMYGDSVI	GRAAGTFDS	5.6 µM	2 of 3	1 of 9
GFTLNSYTIS	VIYSDGRRTWYGDSVK	GRAACTFDS	1.5 µM	1 of 3	0 of 9
GFTLNSYGIG	VIYSCGRRTFYGDSVK	GRAAGTFGS	2.5 µM	1 of 3	5 of 9
GITLNSYGIW	VIYSDGRRTFYGSSVK	GRAAGTFDS	4.7 µM	1 of 3	1 of 9
GFDLNSYGIS	VIYSDGNRTFYGDSVK	GRPAGTFDS	13 nM	3 of 3	8 of 9
GFMLNSYGIS	VIYSDGRRTFYGDSVK	GFAASTFDS	not detected	0 of 3	0 of 9
GFTLNSYGIS	EIYSDGKRIFYGDSVK	GRAAGTFDS	33 µM	2 of 3	2 of 9
GFTLNSYGGS	VIYSDGRRTFYGDSVK	GRAAGTSDY	26 µM	2 of 3	3 of 9

Further variants, results first:

apparent Kd	detected	control signals	CDR-H1	CDR-H2	CDR-H3
not detected	0 of 3	0 of 9	GFTLNSYAES	VIYSDGRRTFYGDSVK	GRHAGTFDS
160 nM	3 of 3	1 of 9	GFGLNSYGIS	VIYSDGRRRFYGDSVK	GRAPGTFDS
510 nM	1 of 3	0 of 9	GFTTNSYGIS	VIYSDGRFTFYGDSVK	GRDAGTFDS
12 µM	3 of 3	3 of 9	GFTLNSYGIS	VIYSDGRRKFYGDSVK	NRAAGTADS
3.9 µM	1 of 3	0 of 9	GATLNSYGIS	FIYSDGRRTFYGPSVK	GRAAGTFDS
7.5 µM	1 of 3	3 of 9	GFTLNSYGIS	VIYSSGRRTFYGDSVK	GRDAGTFPS
not detected	0 of 3	2 of 9	GFTLNWYGIS	VIYVDGRRTFYGDSVK	GRAAGTFDS
31 µM	3 of 3	6 of 9	LFTLNSYGIP	VIYSDGRRTFYGDSVK	GRAAGTNDS
340 nM	1 of 3	0 of 9	GFTLNSYGIS	VIYSDGRRTFYHDSVK	GRAAGTFAS
33 µM	1 of 3	0 of 9	YFTLNSYGIS	VFYSDGRRTFYPDSVK	GRAAGTFDS
not detected	0 of 3	0 of 9	GFTINSYGIL	VIYSDGRRTFYGDSVE	GRAAGTFDS
2.7 µM	2 of 3	0 of 9	GFTLNSKGIS	IIYSDGRRTFYGDSVK	NRAAGTFDS
610 µM	1 of 3	1 of 9	GLTLNSYEIS	VIYSDGRRTFYGDSVK	GRASGTFDS
not detected	0 of 3	0 of 9	GFTLNSYGIK	VIYSDGRRTFYGDNVK	GRAAITFDS
2.7 µM	1 of 3	2 of 9	GFTLNSYGAS	VIYSDGRRTFSGDSVK	GRAAGTFDS
9.6 nM	3 of 3	4 of 9	SRTLNDYGIS	VIYSDGRRTFYGDSVK	GRAAGTFDS
not detected	0 of 3	0 of 9	GFTLNSYGIS	VIYSILRRTFYGDSVK	GRAANTFDS
100 µM	1 of 3	2 of 9	MWTLNSYGKS	VIYSDGRRTFYGDSVK	GRAAGTFDS
8.3 µM	1 of 3	3 of 9	GFTLNSYGIA	VIYSDGNRTFYGDSVL	GRAAGTFDS
not detected	0 of 3	0 of 9	GFTLNSYGIS	VIYSDGRLTFYGDSVK	GRAAGTFDM
4.4 nM	3 of 3	0 of 9	GFTLNSYGIS	VIYSDGRRTFYQDSVK	GGAAGTFDW
58 nM	3 of 3	0 of 9	GFTLNSYGIS	VIYSDGRRTFYGDSVK	GRAAGTREC
not detected	0 of 3	1 of 9	GFTLNSYGIS	VIYVDGRRQFYGDSVK	SRAAGTFDS
120 µM	2 of 3	4 of 9	GFTLNFYGIS	VIVSDGRRTFYGDSVK	GRAANTFDS
not detected	0 of 3	1 of 9	GFTLNSYGIS	VIYSDGRRTTYGDSAK	WRAAGTFDS
not detected	0 of 3	1 of 9	GFTLNSYQIS	VIYSDGRRTFYGDSVK	GRNAETFDS
not detected	0 of 3	1 of 9	GFTLNSYIIS	VIYSFGRRTFYGDSVN	GRAAGTFDS
not detected	0 of 3	3 of 9	GFTLNSYGIS	VIYSDGRRTFRGDSVK	GRAAGLRDS
35 µM	3 of 3	6 of 9	GFTLNSYGIE	VIYSDGRRTFYGCSVK	QRAAGTFDS
520 nM	2 of 3	0 of 9	AFTLNSYGIS	VIYSDRRRTFYGLSVK	GRAAGTFDS
not detected	0 of 3	0 of 9	GFTLNRYGIS	VIYSVGRRTFYGDSVK	GMAAGTFDS
not detected	0 of 3	1 of 9	GFTNNSYGIS	VIYSDGRRTFYGDSVK	GRAAGTFDD
15 µM	2 of 3	1 of 9	LFTLNSYGIS	VIYHDGRRTFYGDSVK	RRAAGTFDS
not detected	0 of 3	1 of 9	GVTLNSYGIS	VIDSDGRRTFYGDSVK	GRAASTFDS

Repeated from above, the 10 best binders with a signal in all replicates:

| CDR-H1 | CDR-H2 | CDR-H3 | apparent Kd | detected | control signals |
|---|---|---|---|---|---|
| GFTLNSYGIS | VIYSDGRRTFYQDSVK | GGAAGTFDW | 4.4 nM | 3 of 3 | 0 of 9 |
| SRTLNDYGIS | VIYSDGRRTFYGDSVK | GRAAGTFDS | 9.6 nM | 3 of 3 | 4 of 9 |
| GFDLNSYGIS | VIYSDGNRTFYGDSVK | GRPAGTFDS | 13 nM | 3 of 3 | 8 of 9 |
| GFTLNSYGIS | VIYSDGRRTFYGDSVV | GHAAGTFDS | 22 nM | 3 of 3 | 1 of 9 |
| GFTLNSYGIS | VIYSDGRRTFYGDSVK | GRAAGTREC | 58 nM | 3 of 3 | 0 of 9 |
| GFGLNSYGIS | VIYSDGRRRFYGDSVK | GRAPGTFDS | 160 nM | 3 of 3 | 1 of 9 |
| GFTLNSYGIS | VMYSDGWRTFYGDDVK | GRAAGTFDS | 1.9 µM | 3 of 3 | 0 of 9 |
| GFTLNMYGIL | VIYSDGRRTFYGDSVK | GRAAGTFDW | 5.7 µM | 3 of 3 | 1 of 9 |
| AFTLNCYGIS | VIYSDGRQTFYGDSVK | GRAAGTFDS | 9.3 µM | 3 of 3 | 5 of 9 |
| GFTLNSYGIS | VIYSDGRRKFYGDSVK | NRAAGTADS | 12 µM | 3 of 3 | 3 of 9 |